Assay results published in patent US8329645B2, “Polymyxin derivatives and uses thereof” (priority 2008, dated 2012).

System: all strains (17) belonging to the group consisting of E. coli, K. oxytoca, E. cloacae, and C. freundii
Experiment: E-test sensitization by NAB7061, summary over strains
Assay type: cell-based
Conditions: rifampin: all 17 strains; clarithromycin: fifteen out of seventeen strains

For `CC[C@H]1OC(=O)[C@H](C)[C@@H](O[C@H]2C[C@@](C)(OC)[C@@H](O)[C@H](C)O2)[C@H](C)[C@@H](O[C@@H]2O[C@H](C)C[C@H](N(C)C)[C@H]2O)[C@](C)(OC)C[C@@H](C)C(=O)[C@H](C)[C@@H](O)[C@]1(C)O` [Clarithromycin], the “MIC of antibiotic in the presence of NAB7061 (4 μg/ml)” value was ≤ 0.25 µg/mL.
